In US20100183613A1, “METHODS OF USING MEVALONATE DECARBOXYLASE (MVD) ANTAGONISTS” (NOVARTIS AG, priority 2008, published 2010):

System: human PBMCs
Conditions: human PBMC infected with virus, 48 hours, Celltiter Glo

CC[C@H](C)C(=O)O[C@H]1C[C@@H](C)C=C2C=C[C@H](C)[C@H](CC[C@@H]3C[C@@H](O)CC(=O)O3)[C@H]21 [Lovastatin]
cytotoxicity: not observed
